For 4 compounds, Activity results are on record in ChEMBL document CHEMBL4024757, “Application of the Ugi Multicomponent Reaction in the Synthesis of Reactivators of Nerve Agent Inhibited Acetylcholinesterase” (2017).

SMILES strings stand for the structures.

The series has as its system Rattus norvegicus. Briefly: Toxicity in Wistar rat assessed as lethality at 32 umol/kg, iv. The note with it: in vivo.
As for `COc1ccc(CN(CC(=O)NCc2ccccc2)C(=O)CCCCCn2cc[n+](C)c2/C=N\O)cc1.[I-]`, the Activity result is “Toxic”.
With `COc1ccc(CN(CC(=O)NC(C)C)C(=O)CCCCCn2cc[n+](C)c2/C=N\O)cc1.[I-]`, the Activity result was “Non-Toxic”.
`CCCCN(CC(=O)NCc1ccccc1)C(=O)CCCCCn1ccnc1/C=N/O`: the Activity entry is given as “Non-Toxic”.
Take `COc1ccc(CN(CC(=O)NCc2ccccc2)C(=O)CCCCCn2ccnc2/C=N/O)cc1`: the Activity result is listed as “Non-Toxic”.
